The source of these data is ChEMBL document CHEMBL1153281, “Synthesis and evaluation of aniline headgroups for alkynyl thienopyrimidine dual EGFR/ErbB-2 kinase inhibitors” (Bioorg Med Chem Lett, 2009).

Amino acid sequences for entries named in this document (tags omitted).
UniProt P04626, whole entry: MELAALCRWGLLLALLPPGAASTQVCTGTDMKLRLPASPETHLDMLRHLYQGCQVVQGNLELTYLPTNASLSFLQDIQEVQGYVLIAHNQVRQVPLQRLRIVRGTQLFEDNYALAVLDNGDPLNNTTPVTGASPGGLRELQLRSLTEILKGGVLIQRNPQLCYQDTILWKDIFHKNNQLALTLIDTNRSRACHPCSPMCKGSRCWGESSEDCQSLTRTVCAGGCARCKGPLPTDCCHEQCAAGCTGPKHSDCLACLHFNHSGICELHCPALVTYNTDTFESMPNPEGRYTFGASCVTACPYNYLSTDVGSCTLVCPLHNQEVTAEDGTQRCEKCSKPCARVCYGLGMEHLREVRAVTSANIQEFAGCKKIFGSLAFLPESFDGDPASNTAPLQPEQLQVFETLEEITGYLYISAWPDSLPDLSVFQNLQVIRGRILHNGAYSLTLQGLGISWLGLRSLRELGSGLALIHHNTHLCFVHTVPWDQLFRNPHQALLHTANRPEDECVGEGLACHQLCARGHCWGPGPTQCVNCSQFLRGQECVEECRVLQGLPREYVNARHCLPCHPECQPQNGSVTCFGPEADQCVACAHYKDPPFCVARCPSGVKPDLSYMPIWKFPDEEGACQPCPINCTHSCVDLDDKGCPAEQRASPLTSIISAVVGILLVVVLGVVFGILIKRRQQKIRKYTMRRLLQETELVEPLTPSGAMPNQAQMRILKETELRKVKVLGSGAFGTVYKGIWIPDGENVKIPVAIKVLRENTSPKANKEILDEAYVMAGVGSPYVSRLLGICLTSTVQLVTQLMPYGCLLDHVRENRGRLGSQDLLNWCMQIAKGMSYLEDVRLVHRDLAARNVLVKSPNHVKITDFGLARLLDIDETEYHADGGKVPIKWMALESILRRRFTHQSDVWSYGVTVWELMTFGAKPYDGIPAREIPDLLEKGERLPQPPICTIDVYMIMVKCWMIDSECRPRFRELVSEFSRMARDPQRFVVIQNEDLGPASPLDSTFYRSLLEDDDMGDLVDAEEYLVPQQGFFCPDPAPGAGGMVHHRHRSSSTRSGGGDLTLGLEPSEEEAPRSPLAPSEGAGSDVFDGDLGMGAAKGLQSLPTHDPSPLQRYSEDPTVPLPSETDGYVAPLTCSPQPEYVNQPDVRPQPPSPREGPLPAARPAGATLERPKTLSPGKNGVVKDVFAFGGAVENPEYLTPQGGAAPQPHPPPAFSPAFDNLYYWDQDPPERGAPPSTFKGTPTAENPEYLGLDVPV
UniProt P00533, whole entry: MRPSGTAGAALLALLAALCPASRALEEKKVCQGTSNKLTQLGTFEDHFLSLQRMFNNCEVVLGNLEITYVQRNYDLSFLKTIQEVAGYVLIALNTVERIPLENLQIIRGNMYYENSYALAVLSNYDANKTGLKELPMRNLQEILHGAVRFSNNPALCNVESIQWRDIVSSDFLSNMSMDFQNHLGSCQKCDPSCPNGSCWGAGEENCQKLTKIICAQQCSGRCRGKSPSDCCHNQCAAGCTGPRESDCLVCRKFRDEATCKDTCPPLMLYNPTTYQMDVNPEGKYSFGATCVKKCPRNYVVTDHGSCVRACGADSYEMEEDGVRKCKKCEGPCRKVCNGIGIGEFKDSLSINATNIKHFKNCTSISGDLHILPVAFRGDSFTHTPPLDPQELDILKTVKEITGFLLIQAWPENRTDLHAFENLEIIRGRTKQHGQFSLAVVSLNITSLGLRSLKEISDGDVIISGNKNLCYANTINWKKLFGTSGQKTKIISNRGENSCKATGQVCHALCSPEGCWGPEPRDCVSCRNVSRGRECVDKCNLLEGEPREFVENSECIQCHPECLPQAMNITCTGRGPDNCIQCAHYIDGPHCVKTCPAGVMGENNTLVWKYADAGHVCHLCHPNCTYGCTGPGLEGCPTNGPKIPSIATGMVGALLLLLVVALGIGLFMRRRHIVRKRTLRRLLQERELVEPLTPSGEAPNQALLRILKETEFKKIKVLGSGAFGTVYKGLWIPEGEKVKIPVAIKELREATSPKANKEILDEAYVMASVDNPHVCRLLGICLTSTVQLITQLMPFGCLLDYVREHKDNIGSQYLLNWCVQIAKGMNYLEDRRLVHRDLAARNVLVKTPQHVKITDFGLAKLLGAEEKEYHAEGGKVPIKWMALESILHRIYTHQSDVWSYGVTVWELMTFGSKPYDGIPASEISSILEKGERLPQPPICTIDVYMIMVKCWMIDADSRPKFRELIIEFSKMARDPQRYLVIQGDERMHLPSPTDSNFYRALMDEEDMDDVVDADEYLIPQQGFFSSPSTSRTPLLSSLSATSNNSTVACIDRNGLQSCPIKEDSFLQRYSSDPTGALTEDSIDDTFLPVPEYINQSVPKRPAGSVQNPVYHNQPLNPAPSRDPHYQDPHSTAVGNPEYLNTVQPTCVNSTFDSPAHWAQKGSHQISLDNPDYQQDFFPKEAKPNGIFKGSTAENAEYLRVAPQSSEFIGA

Assay [1] has as its target Receptor tyrosine-protein kinase erbB-2 (Homo sapiens, UniProt P04626).
Assay [2] addresses Epidermal growth factor receptor (Homo sapiens, UniProt P00533).
In assay [3] the test system is BT-474. Put plainly: cells. Format: functional, cell-based. Conditions: Homo sapiens, BT-474, 72 h.

Each structure is given as a SMILES string.

As usually defined, the IC50 is the concentration that gives 50% inhibition. Low values mean greater potency in that assay, high ones weaker potency in that assay. For `O=C(O[C@H]1CN[C@H](C#Cc2cc3ncnc(Nc4ccc5c(cnn5Cc5cccc(F)c5)c4)c3s2)C1)N1CCOCC1`, the IC50 in assay [1], in assay [2] and in assay [3] was 0.03 µM each time.
Take `O=C(O[C@H]1CN[C@H](C#Cc2cc3ncnc(Nc4ccc(OCc5cccc(F)c5)c(Cl)c4)c3s2)C1)N1CCOCC1` [GW869810X]: in assay [2], the IC50 stood at 0.08 µM.
